Reference: PubChem BioAssay (NCI)
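Dose response: 5 concentrations. Exposure: 48 h. Format: 96-well plates. Endpoint: linear interpolation; highest concentration if not reached. TGI denotes the concentration required for complete inhibition of growth.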

Tests used:
Experiment in all cases: NCI-60 cell line screen, 48 h
NCI/ADR-RES ovarian = tested on: NCI/ADR-RES ovarian
K-562 leukemia = tested on: K-562 leukemia
HT29 colon = tested on: HT29 colon
HL-60(TB) leukemia = tested on: HL-60(TB) leukemia
MDA-N = tested on: MDA-N
COLO 205 colon = tested on: COLO 205 colon
SF-539 CNS = tested on: SF-539 CNS
SK-MEL-28 melanoma = tested on: SK-MEL-28 melanoma
OVCAR-3 ovarian = tested on: OVCAR-3 ovarian
MALME-3M melanoma = tested on: MALME-3M melanoma
786-0 renal = tested on: 786-0 renal
RPMI-8226 leukemia = tested on: RPMI-8226 leukemia
SW-620 colon = tested on: SW-620 colon
UACC-257 melanoma = tested on: UACC-257 melanoma
A498 renal = tested on: A498 renal
A549 NSCLC = tested on: A549 NSCLC
SN12C renal = tested on: SN12C renal
M14 melanoma = tested on: M14 melanoma
HOP-62 NSCLC = tested on: HOP-62 NSCLC
HCT-116 colon = tested on: HCT-116 colon
LOX IMVI melanoma = tested on: LOX IMVI melanoma
SF-295 CNS = tested on: SF-295 CNS
SNB-19 CNS = tested on: SNB-19 CNS
MDA-MB-435 = tested on: MDA-MB-435
SK-MEL-5 melanoma = tested on: SK-MEL-5 melanoma
HCC-2998 colon = tested on: HCC-2998 colon
OVCAR-5 ovarian = tested on: OVCAR-5 ovarian
MOLT-4 leukemia = tested on: MOLT-4 leukemia
CCRF-CEM leukemia = tested on: CCRF-CEM leukemia
NCI-H522 lung = tested on: NCI-H522 lung
NCI-H226 lung = tested on: NCI-H226 lung
SK-OV-3 ovarian = tested on: SK-OV-3 ovarian
OVCAR-4 ovarian = tested on: OVCAR-4 ovarian
UACC-62 melanoma = tested on: UACC-62 melanoma
IGROV1 ovarian = tested on: IGROV1 ovarian
ACHN renal = tested on: ACHN renal
CAKI-1 renal = tested on: CAKI-1 renal
RXF 393 renal = tested on: RXF 393 renal
T-47D breast = tested on: T-47D breast
SK-MEL-2 melanoma = tested on: SK-MEL-2 melanoma
SF-268 CNS = tested on: SF-268 CNS
PC-3 prostate = tested on: PC-3 prostate
NCI-H322M lung = tested on: NCI-H322M lung
U251 CNS = tested on: U251 CNS
NCI-H460 lung = tested on: NCI-H460 lung
MDA-MB-231 breast = tested on: MDA-MB-231 breast
NCI-H23 lung = tested on: NCI-H23 lung
KM12 colon = tested on: KM12 colon
HCT-15 colon = tested on: HCT-15 colon
EKVX NSCLC = tested on: EKVX NSCLC
TK-10 renal = tested on: TK-10 renal
HS 578T breast = tested on: HS 578T breast
SNB-75 CNS = tested on: SNB-75 CNS
DU-145 prostate = tested on: DU-145 prostate

Measured: TGI

CCOP1(=O)N=C(NC2=NC(C(F)(F)F)(C(F)(F)F)OC(C(F)(F)F)(C(F)(F)F)O2)N(C)C1(C)C (centres undefined)
> 100 µM: all assays above
